Measured values reported in the Kinase Knowledgebase extract (Sharma et al. 2016).

Chains of the proteins cited; added tags and fusions are not shown. Lines headed by an entry give the natural chain unless they say otherwise; changes in a name come on top.
UniProt P48736: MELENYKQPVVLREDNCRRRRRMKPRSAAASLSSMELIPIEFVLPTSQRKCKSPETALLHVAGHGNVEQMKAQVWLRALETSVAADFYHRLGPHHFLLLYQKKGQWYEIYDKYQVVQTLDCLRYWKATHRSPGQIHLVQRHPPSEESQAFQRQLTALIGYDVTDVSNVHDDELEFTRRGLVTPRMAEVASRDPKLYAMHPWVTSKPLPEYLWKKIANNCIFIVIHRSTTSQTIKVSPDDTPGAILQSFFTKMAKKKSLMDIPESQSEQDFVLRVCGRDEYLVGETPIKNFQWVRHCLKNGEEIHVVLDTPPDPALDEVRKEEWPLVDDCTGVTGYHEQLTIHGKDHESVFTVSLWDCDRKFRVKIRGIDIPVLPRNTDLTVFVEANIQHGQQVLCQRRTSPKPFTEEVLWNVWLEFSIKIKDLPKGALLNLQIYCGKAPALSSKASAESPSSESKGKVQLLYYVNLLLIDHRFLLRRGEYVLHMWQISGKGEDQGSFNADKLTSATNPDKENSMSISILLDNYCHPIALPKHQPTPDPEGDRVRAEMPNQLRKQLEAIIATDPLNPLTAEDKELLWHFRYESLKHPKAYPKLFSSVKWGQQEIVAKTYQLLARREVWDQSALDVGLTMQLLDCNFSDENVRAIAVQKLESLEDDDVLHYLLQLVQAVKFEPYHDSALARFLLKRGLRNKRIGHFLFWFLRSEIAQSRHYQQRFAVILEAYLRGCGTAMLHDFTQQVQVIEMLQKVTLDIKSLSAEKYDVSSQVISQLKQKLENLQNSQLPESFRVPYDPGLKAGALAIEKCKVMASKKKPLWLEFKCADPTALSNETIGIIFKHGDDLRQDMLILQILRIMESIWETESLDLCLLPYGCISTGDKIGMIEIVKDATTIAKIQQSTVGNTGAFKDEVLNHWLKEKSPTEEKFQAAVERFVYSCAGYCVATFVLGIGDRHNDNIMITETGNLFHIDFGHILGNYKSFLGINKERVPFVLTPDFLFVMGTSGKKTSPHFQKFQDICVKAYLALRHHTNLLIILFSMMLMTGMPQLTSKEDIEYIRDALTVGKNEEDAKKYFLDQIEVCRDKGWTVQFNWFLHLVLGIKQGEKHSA

Target: PIK3CG (human) (UniProt P48736)
Assay: Enzyme Assay

- IC50: < 100 nM
SMILES: C[C@H](NC(=O)c1c(N)nn2cccnc12)c1cc2cccc(Cl)c2c(=O)n1-c1ccccc1
